One molecule from patent publication US12129248B2, “Chromobox protein inhibitors and uses thereof” (Dana-Farber Cancer Institute, Inc., priority 2016, dated 2024) can be followed below.

By UniProt entry, the sequences of proteins in these tests, tags left out. Residues count along the entry.
UniProt O95931, 11-69 limits assumed: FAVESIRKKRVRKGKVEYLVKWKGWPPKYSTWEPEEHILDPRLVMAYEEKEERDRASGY

SMILES strings stand for the structures. pIC50: −log10 of the molar value.

The target in the test is Human His6-CBX7 (Homo sapiens (Human), UniProt O95931). Kind of test: CBX7 AlphaScreen assay (binding of CBX7 chromodomain to H3K27me3 peptide). Particulars: read-out: AVG CBX7 Alpha IC50; average; His6-CBX7 / biotinylated-H3K27me3. Background: Bead proximity is the source of the signal in Alpha formats.

A word on the pIC50: it is the negative decadic logarithm of the IC50, by convention in mol/L. On to `N#Cc1ccc(NC(=O)Nc2ncc(CC(=O)Nc3ccc(N4CCCC4)cc3)s2)cc1`, for which the pIC50 was 5.18.
